The target of one experiment is Mu-type opioid receptor (Rattus norvegicus, UniProt P33535). Put plainly: Antagonist activity on agonist (DAMGO) stimulated [35S]GTP-gamma-S, binding in cloned mu opioid receptors. The experiment is classed as functional. (In general: Binding of GTPγS marks nucleotide exchange on a G protein.)
The target of experiment [1] is Delta-type opioid receptor (Homo sapiens, UniProt P41143). Kind of experiment: Antagonist activity on agonist (SNC-80) stimulated [35S]GTP-gamma-S, binding in cloned opioid receptor mu1. The experiment is classed as functional.

By UniProt entry, the sequences of proteins in these tests, tags left out.
UniProt P33535, whole entry: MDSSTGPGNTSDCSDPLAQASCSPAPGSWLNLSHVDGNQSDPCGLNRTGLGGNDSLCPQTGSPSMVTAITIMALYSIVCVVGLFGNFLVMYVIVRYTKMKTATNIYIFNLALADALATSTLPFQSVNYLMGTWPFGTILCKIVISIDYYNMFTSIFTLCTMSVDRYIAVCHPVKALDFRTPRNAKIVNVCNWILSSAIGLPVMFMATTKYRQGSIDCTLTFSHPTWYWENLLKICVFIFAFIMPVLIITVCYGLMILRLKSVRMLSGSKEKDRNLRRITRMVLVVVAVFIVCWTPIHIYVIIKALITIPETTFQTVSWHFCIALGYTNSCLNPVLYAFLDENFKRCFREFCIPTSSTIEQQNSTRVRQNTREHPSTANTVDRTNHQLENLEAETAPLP
UniProt P41143, whole entry: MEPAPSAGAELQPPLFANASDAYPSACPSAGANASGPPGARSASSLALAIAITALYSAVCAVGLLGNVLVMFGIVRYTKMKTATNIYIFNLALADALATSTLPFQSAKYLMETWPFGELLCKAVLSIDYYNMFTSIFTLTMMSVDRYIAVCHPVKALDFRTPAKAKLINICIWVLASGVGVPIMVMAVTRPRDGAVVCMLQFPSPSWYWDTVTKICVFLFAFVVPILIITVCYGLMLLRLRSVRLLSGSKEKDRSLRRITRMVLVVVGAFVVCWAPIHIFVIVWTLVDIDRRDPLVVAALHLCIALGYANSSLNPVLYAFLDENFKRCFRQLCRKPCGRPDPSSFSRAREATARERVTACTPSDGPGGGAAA

Each structure is given as a SMILES string. Where only a bound is given, the exact number is not on record here.

Usually Ki stands for a dissociation constant, usually derived from enzyme kinetics or from competition with a known ligand. Regarding `Oc1ccc2c3c1O[C@H]1c4[nH]c5c(c4C[C@@]4(O)[C@@H](C2)N(CC2CC2)CC[C@]314)C[C@@]1(O)[C@H]2Cc3ccc(O)c4c3[C@@]1(CCN2CC1CC1)[C@H]5O4` [NORBINALTORPHIMINE], the inhibition constant (Ki) at Mu-type opioid receptor stood at 0.0158 µM. As to `CC(C)[C@@H](CN1CC[C@@](C)(c2cccc(O)c2)[C@@H](C)C1)NC(=O)C1Cc2ccc(O)cc2CN1` (some centres not stated), in experiment [1], the inhibition constant (Ki) was greater than 0.1 µM.

Source of the values: ChEMBL document CHEMBL1134559 (J Med Chem, 2001).
